Results reported in PubChem BioAssay AID639 (Emory University Molecular Libraries Screening Center, 2007).
The entries are a selection whose mix differs from that of the whole data set. Activity calls are given as the source filed them. No stated cut-off is given here; in the data, active means activity above about 200%; inactive means the rest.

Protein sequences, listed by entry. Tags and fused reporters are not part of them.
UniProt P03372, whole entry: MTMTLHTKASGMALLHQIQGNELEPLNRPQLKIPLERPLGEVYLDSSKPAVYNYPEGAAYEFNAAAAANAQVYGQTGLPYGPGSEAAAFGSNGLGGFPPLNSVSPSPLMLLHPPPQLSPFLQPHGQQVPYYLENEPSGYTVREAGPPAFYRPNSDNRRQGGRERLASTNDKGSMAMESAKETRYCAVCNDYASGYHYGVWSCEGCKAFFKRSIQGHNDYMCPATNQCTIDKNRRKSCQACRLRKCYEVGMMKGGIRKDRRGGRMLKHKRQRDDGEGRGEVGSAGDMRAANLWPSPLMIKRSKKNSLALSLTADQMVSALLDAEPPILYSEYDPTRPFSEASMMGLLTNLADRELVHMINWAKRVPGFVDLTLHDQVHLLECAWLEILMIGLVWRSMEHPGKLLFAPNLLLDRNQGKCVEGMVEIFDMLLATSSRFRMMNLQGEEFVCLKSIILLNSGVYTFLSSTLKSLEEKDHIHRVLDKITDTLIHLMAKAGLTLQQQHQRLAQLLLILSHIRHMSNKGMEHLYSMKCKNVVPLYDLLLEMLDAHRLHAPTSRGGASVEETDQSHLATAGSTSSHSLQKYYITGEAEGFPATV

Target: Estrogen receptor (Homo sapiens) (UniProt P03372)
Assay: ERα coactivator recruitment potentiators – biochemical, TR-FRET, ERα LBD, low estradiol, primary screen (AID 639);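 further: binding measured in presence of low estradiol as agonist stimulus; 0% = peptide alone without receptor and 100% = receptor with peptide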
Conditions: TR-FRET ERalpha-LBD/SRC-Cy5 coactivator binding, 2 h; at 25.6 µM; stronger effect = higher value; 100 = basal binding, no effect

Structure (SMILES)	coactivator binding (% of control)
CN(C)CCOC(=O)C(O)(c1ccccc1)C1CCCCC1 (configuration not stated)	inactive: 127%
CCOP(C)(=S)SCC(=O)NC(C)(CC)C(=O)O (configuration not stated)	inactive: 118%
CP(=O)(Nc1ccc2c(c1)OCCO2)Oc1ccccc1 (configuration not stated)	inactive: 112%
Cc1ccccc1NP(C)(=O)Nc1ccccc1C	inactive: 150%
CP(=O)(Nc1ccccc1F)Oc1ccccc1 (configuration not stated)	inactive: 95.2%
CCN(CC)CCCOC(=O)C(O)(c1ccccc1)C1CCCCC1 (configuration not stated)	inactive: 120%
CP(=O)(Nc1ccccc1)Oc1ccc(F)cc1 (configuration not stated)	inactive: 101%
COc1ccccc1OP(C)(=O)Nc1ccc(C)c(C)c1 (configuration not stated)	inactive: 105%
Cc1nc2ccc3ccccc3c2o1.O=[N+]([O-])c1cc([N+](=O)[O-])c(O)c([N+](=O)[O-])c1	inactive: 107%
CN(C)CCOC(=O)C(O)(c1ccccc1)C1CCCC1 (configuration not stated)	inactive: 99.3%
COc1ccc(OP(C)(=O)Nc2ccccn2)cc1 (configuration not stated)	inactive: 112%
Cc1c(NP(C)(=O)Oc2ccc(C(C)C)cc2)c(=O)n(-c2ccccc2)n1C (configuration not stated)	inactive: 98.6%
CCc1ccc(OP(C)(=O)O)cc1	inactive: 104%
CP(=O)(Nc1ccccn1)Oc1ccccc1 (configuration not stated)	inactive: 95.5%
COc1ccccc1OP(C)(=O)Nc1ccc(C)cc1C (configuration not stated)	inactive: 109%
CP(=O)(Oc1ccccc1)N1CCOC1=O (configuration not stated)	inactive: 96.6%

Structure (SMILES)	coactivator binding (% of control)
COc1ccccc1OP(C)(=O)Nc1c(C)n(C)n(-c2ccccc2)c1=O (configuration not stated)	inactive: 112%
CP(=O)(Nc1ccc(Cl)cc1)Oc1ccc(F)cc1 (configuration not stated)	inactive: 73.4%
CC(C)(C)c1ccc(OP(C)(=O)O)cc1	inactive: 99%
CP(=O)(OC12CC3CC(CC(C3)C1)C2)OC12CC3CC(CC(C3)C1)C2	inactive: 103%
CP(=S)(Nn1cnnc1)Oc1ccccc1 (configuration not stated)	inactive: 89.2%
CP(=O)(NC(=O)Nc1ccccc1)Oc1ccccc1 (configuration not stated)	inactive: 122%
CCOP(C)(=S)SCC(=O)NC(C)C(=O)O (configuration not stated)	inactive: 106%
CP(=O)(Nc1ccccn1)Oc1ccc(Cl)cc1 (configuration not stated)	inactive: 100%
COc1ccccc1OP(C)(=O)Nc1ccc(C)cc1 (configuration not stated)	inactive: 125%
Cc1ccc(NP(C)(=O)Oc2ccccc2)c(C)c1 (configuration not stated)	inactive: 95.2%
COc1ccc(OP(C)(=O)Nc2cccc(F)c2)cc1 (configuration not stated)	inactive: 104%
Cc1cc(C)cc(OP(C)(=O)Nc2ccc(C)cc2C)c1 (configuration not stated)	inactive: 95%
Cc1cc(C)cc(OP(C)(=O)Nc2ccccn2)c1 (configuration not stated)	inactive: 106%
Cc1ccc(C)c(NP(C)(=O)Oc2ccccc2)c1 (configuration not stated)	inactive: 94.8%
Cc1nc2ccc3ccccc3c2s1.O=[N+]([O-])c1cc([N+](=O)[O-])c(O)c([N+](=O)[O-])c1	inactive: 97.5%
COc1ccccc1OP(C)(=O)Nc1c(C)cccc1C (configuration not stated)	inactive: 110%
